Laboratory results: patent publication US20040002117A1, “Specific inhibitors of NFAT activation by calcineurin and their use in treating immune-related diseases” (priority 1998, published 2004)

Tests used:
[1] = biological target: calcineurin binding to NFAT1 (Homo sapiens, UniProt Q08209); assay: 125I-calcineurin binding to GST-NFAT1(1-400) immobilized on glutathione-Sepharose beads; conditions: 125I-labelled calcineurin 14 nM, 30 min at 4° C., read-out: IC50 for inhibition of the binding of calcineurin to NFAT1
Protocol: (§1) ^125I-labelled calcineurin (14 nM, −7×10^5 cpm) was incubated for 30 min at 4° C. with GST-tagged NFAT1 N-terminal domain (GST NFAT1(1-400)) that had been immobilized on glutathione-Sepharose™ beads (Pharmacia Biotech, Piscataway, N.J.), in the absence or presence of different concentrations (1 μM to 100 μM) of wild type 13-mer peptide, wild type 26-mer peptide, or CM2 mutant 26-mer peptide. At the end of the incubation, the glutathione Sepharose beads with bound NFAT1-calcineurin complexes were washed on 5 μm hydrophilic Durapore PVDF filters (Millipore Corporation, Bedford, Mass.) to remove unbound calcineurin, and NFAT1-bound calcineurin was quantitated using a gamma counter. Both peptides incorporating the wild type sequence […] (SEQ ID NO:17) inhibited the binding of calcineurin to NFAT1.

[2] = biological target: calcineurin binding to NFAT2 (Homo sapiens, UniProt Q08209); assay: 125I-calcineurin binding to GST-tagged N-terminal domain of NFAT2 (residues 1-418); conditions: GST-NFAT2 (residues 1-418), read-out: IC50 for inhibition of NFAT2 calcineurin binding
Protocol: as §1
(§2) The […] (SEQ ID NO:17) sequence of NFAT1 is highly conserved in NFAT2, but only partially conserved in NFAT4 which has a […] (SEQ ID NO:20) sequence. NFAT1, NFAT2 and NFAT4 constitute the group of NFAT members expressed in immune cells. The inhibitory effect of the […] peptides, 13-mer and 26-mer, of NFAT1 on the binding of calcineurin to NFAT1, NFAT2 and NFAT4 was tested. […]

[3] = biological target: calcineurin binding to NFAT4 (Homo sapiens, UniProt Q08209); assay: 125I-calcineurin binding to GST-tagged N-terminal domain of NFAT4 (residues 1-400); conditions: GST-NFAT4 (residues 1-400), read-out: IC50 for inhibition of NFAT4 calcineurin binding
Protocol: as §1, §2

[4] = biological target: T1, dephosphorylation of NFAT by calcineurin (Homo sapiens, UniProt Q08209); assay: calcineurin-mediated dephosphorylation of HA-NFAT1(1-460)-GFP in HeLa cell lysates; format: biochemical; set-up: host or cells: Exogenous calcineurin added to extracts of HeLa (A4, A14) or HEK-293 (A8) cells expressing the NFAT1 fusion
Protocol: Lysates of HeLa cells stably expressing HA-NFAT1(1-460)-GFP (hereinafter “HA-NFAT1”) were incubated with 200 nM calcineurin plus 600 nM calmodulin and 2 mM CaCl2 for 30 min at 30 C. in buffer as described (J Aramburu et al (1998) Mol Cell 1, 627-637). The phosphorylation status of NFAT was evaluated by SDS-polyacrylamide gel electrophoresis and Western blotting with anti-HA antibody 12CA5. For these experiments, reaction conditions were chosen that produced only limited dephosphorylation of NFAT (FIG. 5B, lane 2) in order to maximize the sensitivity of the assay in detecting inhibition. The SPRIEIT-13 (lanes 3-6), VIVIT 16-mer (lanes 7-9), and SPAIAIA-25 (lane 10) peptides were again included in the assay where indicated, in the amounts indicated above each lane (in μM). […] Both the VIVIT peptide and the […] peptide were effective at inhibiting NFAT dephosphorylation.

[5] = biological target: T2, calcineurin (Homo sapiens, UniProt Q08209); assay: calcineurin phosphatase activity with 32P-labelled phospho-RII peptide as substrate; format: biochemical; conditions: peptide 100 μM
Protocol: Inhibition of NFAT dephosphorylation by VIVIT peptide was not due to occlusion of the catalytic site of calcineurin. This point had previously been established for the […] peptide (see Example 4), and was tested here by measuring calcineurin phosphatase activity with ^32P-labelled phospho-RII peptide as substrate (J Aramburu et al (1998) Mol Cell 1, 627-637). SPRIEIT-13, SPAIAIA-25, and VIVIT 16-mer peptides were included in the incubation as indicated. The results are plotted in FIG. 5C as radiolabel released from ^32P-phospho-RII peptide (counts per minute×10^−3). Where peptide was present, its concentration (μM) is indicated in FIG. 5C; CsA/cyclophilin A complexes (CsA/Cyp) were present at 10 μM. […] In contrast, CsA/cyclophilin A complexes inhibited calcineurin phosphatase activity by approximately 95% in this assay, consistent with the established mode of action of CsA/cyclophilin A complexes, which is interference with calcineurin activity against all its peptide and protein substrates.

[6] = biological target: T2, calcineurin; assay: calcineurin phosphatase assay with phosphorylated RII peptide, Malachite green detection; format: biochemical; conditions: 100 μM INCA compound or 100 μM VIVIT peptide; 6.8 nM calcineurin, 15 min at 25° C.
Protocol: The phosphatase activity of calmodulin-activated calcineurin was assayed photometrically using phosphorylated RII peptide as substrate and Malachite green for detection (BIOMOL Research Laboratories). […] DMSO concentration was kept constant in all samples. Release of free phosphate, calibrated to known standards, was 12-18 pmol/min under the conditions described and was not affected by the presence of dimethyl sulfoxide (DMSO), VIVIT peptide, INCA2, or any of the other 10 INCA compounds described in Example 18. The data are plotted as a bar graph in FIG. 11B, which also includes data for two of the negative control compounds from the chemical library (NEG-1 and NEG-2).

[7] = biological target: calcineurin binding to GST-NFAT1 (Homo sapiens, UniProt Q08209); assay: binding of activated calcineurin to GST-NFAT1(1-415), glutathione-Sepharose collection and Western blotting
Protocol: FIGS. 5A-5C illustrate that the optimised VIVIT peptide is a potent inhibitor of the interaction between NFAT and calcineurin. In FIG. 5A, the protein-protein interaction between calcineurin and NFAT was assayed by incubating 200 nM calcineurin that had been activated with 600 nM calmodulin and 2 mM CaCl2 with 3 μg GST or GST-NFAT1(1-415) as described (F J Garcia-Cozar et al (1998) J Biol Chem 273, 23877-23883). NFAT1-bound calcineurin was collected by incubation with glutathione-Sepharose resin and detected by Western blotting with a polyclonal antibody to the calcineurin A chain (C Loh et al (1996) J Biol Chem 271, 10884-10891). The peptides SPRIEIT-13 or SPAIAIA-25 (J Aramburu et al (1998) Mol Cell 1, 627-637) or the VIVIT 16-mer peptide were included in the assay where indicated, in the amounts indicated above each lane (in μM).

[8] = biological target: T1, dephosphorylation of NFAT by calcineurin; assay: in vitro dephosphorylation of NFAT1 in C1.7W2 T cell lysates by recombinant calcineurin; format: biochemical; conditions: 500 nM calcineurin, 600 nM calmodulin, 30 minutes at 30° C.; INCA2 at micromolar concentrations

Compound | IC50 [1] [µM] | IC50 [2] [µM] | IC50 [3] [µM] | inhibition of NFAT dephosphorylation ([4]; 200 nM calcineurin, 600 nM calmodulin, 30 min at 30 C., peptide amounts as in FIG. 5B) | inhibition of NFAT1 dephosphorylation ([4]; peptide 100 μM) | inhibition of calcineurin phosphatase activity towards the RII phosphopeptide [5] | release of free phosphate from RII phosphopeptide [6] | inhibition of the binding of activated calcineurin to GST-NFAT1 ([7]; 200 nM calcineurin, 600 nM calmodulin, 2 mM CaCl2, peptide amounts as in FIG. 5A) | inhibition of calcineurin binding to GST-NFAT1 ([7]; peptide 100 μM) | dephosphorylation of NFAT by calcineurin in vitro [8]
CC[C@H](C)[C@H](NC(=O)[C@H](CCCNC(=N)N)NC(=O)[C@@H]1CCCN1C(=O)[C@H](CO)NC(=O)[C@@H]1CCCN1C(=O)CNC(=O)[C@@H](N)CO)C(=O)N[C@@H](CCC(=O)O)C(=O)N[C@H](C(=O)N[C@H](C(=O)N1CCC[C@H]1C(=O)N[C@@H](CO)C(=O)N[C@@H](Cc1c[nH]cn1)C(=O)O)[C@@H](C)O)[C@@H](C)CC [wild type 13-mer peptide] | ~15 |  |  |  |  |  |  |  |  | 
CC[C@H](C)[C@H](NC(=O)[C@H](CCCNC(=N)N)NC(=O)[C@@H]1CCCN1C(=O)[C@H](CO)NC(=O)[C@@H]1CCCN1C(=O)CNC(=O)[C@H](CO)NC(=O)[C@H](C)NC(=O)CNC(=O)[C@H](C)NC(=O)[C@@H]1CCCN1C(=O)[C@@H](N)CCCCN)C(=O)N[C@@H](CCC(=O)O)C(=O)N[C@H](C(=O)N[C@H](C(=O)N1CCC[C@H]1C(=O)N[C@@H](CO)C(=O)N[C@@H](Cc1c[nH]cn1)C(=O)N[C@@H](CCC(=O)O)C(=O)N[C@@H](CC(C)C)C(=O)N[C@@H](CCSC)C(=O)N[C@@H](CCC(N)=O)C(=O)N[C@@H](C)C(=O)NCC(=O)NCC(=O)N[C@@H](Cc1ccc(O)cc1)C(=O)O)[C@@H](C)O)[C@@H](C)CC [wild type 26-mer peptide] | ~15 | ~15 | ~15 |  |  |  |  |  |  | 
MAGPHPVIVITGPHEE [VIVIT 16-mer peptide] |  |  |  | effective | completely blocks | did not inhibit | not affected | inhibited | completely blocks | blocked
